The structures appear in SMILES notation. pIC50: −log10 of the molar value.

The chains behind the UniProt entries cited, without tags or fusion partners. Where a name states a change or a piece, a line headed by the entry shows the natural chain unless it says otherwise.
UniProt Q12809: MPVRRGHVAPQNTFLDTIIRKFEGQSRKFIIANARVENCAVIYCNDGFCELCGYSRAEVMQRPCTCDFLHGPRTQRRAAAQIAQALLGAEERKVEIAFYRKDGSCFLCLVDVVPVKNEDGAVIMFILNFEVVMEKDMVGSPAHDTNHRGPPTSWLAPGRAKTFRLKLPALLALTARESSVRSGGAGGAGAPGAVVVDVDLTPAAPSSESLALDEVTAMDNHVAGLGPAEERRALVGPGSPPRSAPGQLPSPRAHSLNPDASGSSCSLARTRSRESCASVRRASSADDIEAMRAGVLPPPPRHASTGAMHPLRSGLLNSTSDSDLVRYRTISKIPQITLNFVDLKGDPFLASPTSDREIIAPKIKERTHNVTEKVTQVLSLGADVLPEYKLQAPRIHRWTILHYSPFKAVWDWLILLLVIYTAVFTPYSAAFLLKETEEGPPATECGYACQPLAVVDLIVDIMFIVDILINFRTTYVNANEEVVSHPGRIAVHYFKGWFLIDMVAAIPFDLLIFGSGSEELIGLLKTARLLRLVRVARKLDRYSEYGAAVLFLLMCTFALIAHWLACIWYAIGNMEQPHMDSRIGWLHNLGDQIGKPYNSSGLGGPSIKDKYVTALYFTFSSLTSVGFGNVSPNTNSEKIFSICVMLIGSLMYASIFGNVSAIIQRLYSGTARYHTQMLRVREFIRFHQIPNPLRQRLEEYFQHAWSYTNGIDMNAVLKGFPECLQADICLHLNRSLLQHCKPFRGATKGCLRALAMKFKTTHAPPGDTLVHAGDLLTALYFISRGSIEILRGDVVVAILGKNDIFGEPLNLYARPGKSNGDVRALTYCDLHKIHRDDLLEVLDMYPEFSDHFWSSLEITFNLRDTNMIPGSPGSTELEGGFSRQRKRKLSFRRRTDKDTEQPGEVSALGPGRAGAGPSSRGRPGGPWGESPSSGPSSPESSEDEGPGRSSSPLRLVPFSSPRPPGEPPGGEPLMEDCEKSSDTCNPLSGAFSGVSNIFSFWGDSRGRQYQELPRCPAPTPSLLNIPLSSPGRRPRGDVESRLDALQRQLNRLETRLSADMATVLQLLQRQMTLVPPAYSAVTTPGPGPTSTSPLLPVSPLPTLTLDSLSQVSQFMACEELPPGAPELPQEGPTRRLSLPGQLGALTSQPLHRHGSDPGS

Broadly, the pIC50 is −log10 of the IC50, conventionally taken in molar units.

The target in the test is Voltage-gated inwardly rectifying potassium channel KCNH2 (Homo sapiens, UniProt Q12809). The experiment in a line: Displacement of [3H]astemizole from human ERG K+ channel expressed in HEK293 cells by scintillation spectrophotometric analysis.
In turn, `Cc1ccc(Cc2cc[n+](C)c(COc3ccc(C)cc3)c2)cc1` gave a pIC50 of 6.46.

Compound `Cc1ccc(OCc2cccc(COc3ccc(C)cc3)[n+]2C)cc1` showed a pIC50 of 7.28.

In turn, `Cc1ccc(Cc2cccc(COc3ccc(C)cc3)n2)cc1` showed a pIC50 below 8.00.

For the compound `CCCCCCCCc1cccc(CCCCCCCC)[n+]1C`, the pIC50 is 7.82.

`c1ccc(OCc2cccc(COc3ccccc3)n2)cc1` had a pIC50 of 7.13.

As to `COc1ccc(OCCCc2cccc(CCCOc3ccc(OC)cc3)[n+]2C)cc1`, the pIC50 was 6.80.

As for `Cc1ccc(CCc2cccc(CCc3ccc(C)cc3)[n+]2C)cc1`, the pIC50 was 7.62.

The values above are taken from ChEMBL document CHEMBL2321724 (J Med Chem, 2013).
